Screening results as filed in PubChem BioAssay.
PDI turbidity = PDI (human) enzyme inhibition; PDI insulin aggregation turbidity, A650, 90 min; inhibition, % at 10 µM; 350,000 compounds, 0.052% hits;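 active = mean inhibition across replicates of 30% or more, whatever share of single replicates reach that level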
SIRT5 block = blocks human SIRT5 desuccinylation of peptide. Purified SirT5, succinyl-peptide AMC, trypsin-coupled fluorescence. inhibition, % at 15 µM. 330,000 compounds, 1.1% hits. AID 652115; in the data active = inhibition above about 15%
UUG fidelity = alters start codon recognition fidelity in yeast; AID 602363; activity score, % at 18.7 µM; 350,000 tested, 0.13% active; S. cerevisiae UUG-firefly luciferase reporter, luminescence/redox ratio;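 active means replicate mean at a twofold rise or more, about +100% in these data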;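 further: firefly luciferase made from a UUG start codon reports start codon fidelity; reporter light over untreated wells divided by growth signal over untreated wells; some hits fall short of that in this replicate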
S100A4 inh HTS = blocks human S100A4 binding to myosin IIA peptide | P26447 | S100A4/TAMRA-MyoIIA peptide fluorescence polarization | inhibition, % at 10.7 µM | 360,000 compounds, 0.14% hits;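 active = mean inhibition of at least 70% across replicates, with every replicate also reaching that level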
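Material: S100A4 monomer protein / Buffer or medium: 50 mM HEPES pH 7.2, 10 mM CaCl2, 100 mM KCl / Times: 5 min incubation before reading / Benchmarks: neutral control DMSO, positive control TFP / Reagent: labelled myosin peptide probe, 5 nM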
FGF22 binding = shifts melting point of recombinant human FGF22; 340,000 compounds, 1.5% hits; activity (Tm shift, normalised), % at 9.99 µM; recombinant FGF22 thermal shift, SYPRO orange fluorescence; percent of sucrose octasulfate shift, DMSO zero; AID 651658;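 active = mean Tm shift, scaled 0 neutral to 100 positive control, at about 1.3% or above, every replicate too, limit read from the data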
ERp5 block = blocks human ERp5 reductase activity on insulin; Q15084; ERp5 insulin aggregation, absorbance 650 nm, 90 min; inhibition, % at 9.99 µM; 350,000 compounds, 0.05% hits;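 active = mean replicate inhibition above about 25%, with every replicate also reaching it, limit read from the data, passing the limit was not always enough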
* = called active by the depositor; nt = no result given. Hits are enriched below; roughly 2.2% of the tested compounds scored in any of these assays.

#1 COc1ccc(NC(=O)N(C)C[C@@H]2OCCCC[C@H](C)Oc3ccc(NC(=O)Nc4ccc(F)cc4)cc3C(=O)N([C@@H](C)CO)C[C@@H]2C)cc1
#2 COc1ccc(S(=O)(=O)N(C)C[C@H]2OCCCC[C@@H](C)Oc3ccc(NC(=O)Nc4ccc(C(F)(F)F)cc4)cc3C(=O)N([C@@H](C)CO)C[C@H]2C)cc1
#3 COc1ccc(NC(=O)Nc2ccc3c(c2)C(=O)N([C@@H](C)CO)C[C@@H](C)[C@H](CN(C)S(=O)(=O)c2ccccc2)OCCCC[C@@H](C)O3)cc1
#4 C[C@@H]1CCCCO[C@@H](CN(C)S(=O)(=O)c2ccc(F)cc2)[C@H](C)CN([C@@H](C)CO)C(=O)c2cc(NC(=O)Nc3ccc4c(c3)OCO4)ccc2O1
#5 COc1ccc(S(=O)(=O)N(C)C[C@@H]2OCCCC[C@@H](C)Oc3ccc(NC(=O)Nc4ccc(C(F)(F)F)cc4)cc3C(=O)N([C@@H](C)CO)C[C@@H]2C)cc1
#6 COc1ccc(NC(=O)N(C)C[C@H]2Oc3ccc(NS(=O)(=O)c4c(C)noc4C)cc3C(=O)N([C@@H](C)CO)C[C@@H]2C)cc1
#7 C[C@H]1CN([C@@H](C)CO)C(=O)c2cc(NC(=O)C3CCCCC3)ccc2O[C@H]1CN(C)C
#8 COC(=O)c1cn(CCNC(=O)Nc2ccccc2)nn1

assay / compound | 1 | 2 | 3 | 4 | 5 | 6 | 7 | 8
PDI turbidity | nt | nt | nt | nt | nt | nt | nt | nt
SIRT5 block | 8 | 8 | 15* | 21* | 28* | 4 | -7 | -1
UUG fidelity | 8 | -10 | -6 | 3 | -16 | -1 | -19 | nt
S100A4 inh HTS | 17 | 4 | 6 | -9 | 0 | -7 | 5 | 1
FGF22 binding | 1 | -1 | 0 | 0 | 0 | 0 | 0 | 0
ERp5 block | 1 | 7 | 0 | -1 | 21 | 7 | 10 | 2

#9 CCCNC(=O)N1C[C@H](O)COC[C@H]2O[C@@H](CC(=O)N3CCN(C)CC3)CC[C@@H]21
#10 COc1ccc(CN(C)C[C@H]2OCCCC[C@@H](C)Oc3ccc(NC(=O)Nc4ccc(F)cc4)cc3C(=O)N([C@@H](C)CO)C[C@@H]2C)cc1
#11 COc1ccc(NC(=O)Nc2ccc3c(c2)C(=O)N([C@H](C)CO)C[C@H](C)[C@H](CN(C)Cc2ccc(C(F)(F)F)cc2)OCCCC[C@H](C)O3)cc1
#12 CC(C)N(C(=O)COC(=O)[C@H](C)NC(N)=O)c1ccccc1
#13 C[C@H]1CN([C@@H](C)CO)C(=O)c2cc(Br)cnc2O[C@H]1CN(C)S(=O)(=O)c1ccc(F)cc1
#14 CN1C(=O)c2cc(NC(=O)c3cccc(F)c3)ccc2OC[C@@H]2O[C@@H](CC(=O)NC3CCC3)CC[C@@H]21
#15 CC1CC(C(F)(F)F)n2nc(C(=O)O)cc2N1 (stereo not drawn)
#16 O=C(O)c1cc2n(n1)C(C(F)(F)F)CC(C1CC1)N2 (stereo not drawn)

assay / compound | 9 | 10 | 11 | 12 | 13 | 14 | 15 | 16
PDI turbidity | nt | nt | nt | 3 | nt | nt | -1 | 7
SIRT5 block | 0 | 100* | 2 | 1 | -5 | nt | 2 | 1
UUG fidelity | nt | 14 | 35 | nt | 10 | 11 | -4 | -14
S100A4 inh HTS | 0 | 8 | 157* | 5 | -10 | nt | 4 | 0
FGF22 binding | 0 | -1 | -1 | 43* | -1 | 0 | nt | 43*
ERp5 block | 3 | -3 | -16 | -7 | -3 | nt | 1 | 7

#17 O=C(Nc1ccccc1)N1CC(=O)N2[C@H](CO)[C@H](c3ccc(C#CC4CCCCC4)cc3)[C@@H]2C1
#18 CC(Nc1ccccc1N1CCCCC1)C(=O)N1CCc2ccccc21 (stereo not drawn)
#19 CCC(=O)N1[C@H](CO)[C@H]2c3ccccc3N(S(=O)(=O)c3ccccc3)C[C@H]21
#20 O=C(C[C@@H]1CC[C@H](NC(=O)c2ccccc2)[C@@H](CO)O1)Nc1ccc(-c2ccccc2)cc1
#21 NC(=O)CCn1c(C(=O)c2cc(Cl)c(N)c(Cl)c2)c2ccccc2[n+]1[O-]
#22 NCCCn1c(C(=O)c2cc(Cl)c(N)c(Cl)c2)c2ccccc2[n+]1[O-]
#23 C[C@@H]1CN([C@@H](C)CO)S(=O)(=O)c2ccc(-c3ccccc3)cc2O[C@@H]1CN(C)C(=O)C1CC1

assay / compound | 17 | 18 | 19 | 20 | 21 | 22 | 23
PDI turbidity | nt | 1 | nt | nt | -4 | 16 | nt
SIRT5 block | 1 | -4 | -3 | 1 | -2 | 40* | nt
UUG fidelity | nt | -7 | -9 | -19 | -22 | -2 | -3
S100A4 inh HTS | 10 | 0 | -1 | 9 | -3 | -3 | nt
FGF22 binding | nt | 43* | 0 | 0 | 0 | 0 | nt
ERp5 block | -2 | 2 | -1 | -4 | 0 | -10 | nt

S100A4 inh HTS, hit marks shown above
#	SMILES	PDI turbidity	SIRT5 block	UUG fidelity	S100A4 inh HTS	ERp5 block
11	COc1ccc(NC(=O)Nc2ccc3c(c2)C(=O)N([C@H](C)CO)C[C@H](C)[C@H](CN(C)Cc2ccc(C(F)(F)F)cc2)OCCCC[C@H](C)O3)cc1	nt	2	35	157*	-16
